This assay deals with cellular PARG (Homo sapiens, UniProt Q86W56). Nature of the assay: Nuclear PAR accumulation assay (immunofluorescence high-content imaging, MMS-treated HeLa cells). The conditions noted are these: read-out: PAR Accumulation IC50, 1 hour compound then MMS 50 μg/mL for an additional hour.

Amino acid sequences for entries named in this document (tags omitted).
UniProt Q86W56, whole entry: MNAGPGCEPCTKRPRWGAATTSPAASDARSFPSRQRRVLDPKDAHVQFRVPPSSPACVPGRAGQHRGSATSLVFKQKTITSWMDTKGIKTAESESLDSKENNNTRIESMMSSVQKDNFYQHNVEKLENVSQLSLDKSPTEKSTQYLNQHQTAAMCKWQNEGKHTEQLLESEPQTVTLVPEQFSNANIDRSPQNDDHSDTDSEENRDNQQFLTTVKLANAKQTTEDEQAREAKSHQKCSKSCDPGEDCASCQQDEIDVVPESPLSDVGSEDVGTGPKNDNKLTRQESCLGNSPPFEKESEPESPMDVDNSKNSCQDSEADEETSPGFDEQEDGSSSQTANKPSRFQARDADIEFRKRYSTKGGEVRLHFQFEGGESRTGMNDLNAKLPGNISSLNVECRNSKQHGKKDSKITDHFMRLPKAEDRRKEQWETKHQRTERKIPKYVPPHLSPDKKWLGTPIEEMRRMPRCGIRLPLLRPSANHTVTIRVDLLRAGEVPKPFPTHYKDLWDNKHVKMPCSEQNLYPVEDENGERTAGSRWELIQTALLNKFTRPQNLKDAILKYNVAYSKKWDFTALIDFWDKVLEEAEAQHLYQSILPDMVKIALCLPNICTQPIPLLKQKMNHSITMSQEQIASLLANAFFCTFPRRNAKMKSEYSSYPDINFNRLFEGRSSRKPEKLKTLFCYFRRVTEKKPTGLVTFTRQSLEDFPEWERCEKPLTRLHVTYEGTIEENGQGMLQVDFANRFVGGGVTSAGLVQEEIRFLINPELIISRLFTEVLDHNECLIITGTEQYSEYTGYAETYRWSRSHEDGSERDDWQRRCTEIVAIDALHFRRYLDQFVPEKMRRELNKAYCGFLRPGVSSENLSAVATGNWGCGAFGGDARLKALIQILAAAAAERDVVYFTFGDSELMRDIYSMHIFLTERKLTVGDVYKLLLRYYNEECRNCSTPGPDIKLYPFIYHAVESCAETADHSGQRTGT

The structures appear in SMILES notation.

Take `COc1ccc(-c2cc(S(=O)(=O)NC3(C)CC3)cc3c2N2CC(C)(C)N=C2N(C)C3=O)cn1`: the IC50 lay within 100 to 1000 nM.
To `C[C@@H]1[C@H](CO)N=C2N(Cc3cnn(C)c3)C(=O)c3cc(S(=O)(=O)NC4(C)CC4)ccc3N21` [Example 294, (1R,2R)-2-(hydroxymethyl)-1-methyl-4-((1-methyl-1H-pyrazol-4-yl)methyl)-N-(1-methylcyclopropyl)-5-oxo-1,2,4,5-tetrahydroimidazo[1,2-a]quinazoline-7-sulfonamide] belongs 100 to 1000 nM.

Source of the values: patent US20260285875A1, “INHIBITORS OF PARG” (858 Therapeutics, Inc., priority 2023, published 2026).
